This is a selection; strong and weak results do not stand in their true shares. Activity calls are given as the source filed them.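 How the source made its calls: active means ratio signal rise beyond 5 SD above unstimulated control wells' mean, seen in both duplicate runs; inactive means the rest.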
target: Short transient receptor potential channel 6 (Mus musculus) (UniProt Q61143); assay: mouse TRPC6 channel activators, confirmation, HEK293 cells, membrane potential dye, duplicate (AID 488961); details: HEK293-TRPC6 membrane potential dye fluorescence, FDSS; at 10 µM

Protein sequences, listed by entry. Tags and fused reporters are not part of them.
UniProt Q61143, whole entry: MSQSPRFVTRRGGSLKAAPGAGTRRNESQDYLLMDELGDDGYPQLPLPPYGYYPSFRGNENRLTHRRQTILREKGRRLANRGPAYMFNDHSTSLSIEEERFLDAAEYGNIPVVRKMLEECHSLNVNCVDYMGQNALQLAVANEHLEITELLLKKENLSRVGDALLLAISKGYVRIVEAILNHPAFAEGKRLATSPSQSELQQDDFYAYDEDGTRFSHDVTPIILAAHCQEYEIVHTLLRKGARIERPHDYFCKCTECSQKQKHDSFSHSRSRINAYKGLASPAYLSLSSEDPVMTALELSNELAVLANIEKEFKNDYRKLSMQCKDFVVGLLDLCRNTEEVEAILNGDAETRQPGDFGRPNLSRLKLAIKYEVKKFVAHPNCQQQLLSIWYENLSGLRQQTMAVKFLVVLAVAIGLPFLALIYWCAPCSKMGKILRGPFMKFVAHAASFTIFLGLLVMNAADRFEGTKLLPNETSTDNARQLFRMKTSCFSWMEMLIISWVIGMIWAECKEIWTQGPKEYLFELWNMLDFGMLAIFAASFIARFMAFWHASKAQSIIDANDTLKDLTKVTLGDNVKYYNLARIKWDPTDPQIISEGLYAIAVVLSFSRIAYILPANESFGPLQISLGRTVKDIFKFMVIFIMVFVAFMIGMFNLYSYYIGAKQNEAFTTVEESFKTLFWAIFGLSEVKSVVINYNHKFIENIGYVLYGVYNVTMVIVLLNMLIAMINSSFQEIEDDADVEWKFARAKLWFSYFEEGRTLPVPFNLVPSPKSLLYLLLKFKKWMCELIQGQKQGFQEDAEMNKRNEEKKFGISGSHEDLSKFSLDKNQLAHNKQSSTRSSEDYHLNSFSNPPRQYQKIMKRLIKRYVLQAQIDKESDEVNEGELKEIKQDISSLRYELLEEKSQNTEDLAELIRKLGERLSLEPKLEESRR

| SMILES | outcome |
| --- | --- |
| CCN(CC)CCCOC(=O)C(O)(c1ccccc1)c1ccccc1 | inactive |
| CN(C)CCOC(=O)C(O)(c1ccccc1)C1CCCC1 (stereo not drawn) | inactive |
| CN(C)CCOC(=O)C(O)(c1ccccc1)C1CCCCC1 (stereo not drawn) | inactive |
